Consider one compound from patent US9067894B1, “Compound, composition, and method of activating GIRK potassium channel and use of same for treating conditions of interest” (Vanderbilt University, priority 2013, dated 2015).

For the assay, the target named is T1, GIRK1/4 (Homo sapiens, UniProt P48544+P48549).
T1 construct: expressed in transfected cells; host or cells: HEK-293
T1 sequence (P48549 1-501): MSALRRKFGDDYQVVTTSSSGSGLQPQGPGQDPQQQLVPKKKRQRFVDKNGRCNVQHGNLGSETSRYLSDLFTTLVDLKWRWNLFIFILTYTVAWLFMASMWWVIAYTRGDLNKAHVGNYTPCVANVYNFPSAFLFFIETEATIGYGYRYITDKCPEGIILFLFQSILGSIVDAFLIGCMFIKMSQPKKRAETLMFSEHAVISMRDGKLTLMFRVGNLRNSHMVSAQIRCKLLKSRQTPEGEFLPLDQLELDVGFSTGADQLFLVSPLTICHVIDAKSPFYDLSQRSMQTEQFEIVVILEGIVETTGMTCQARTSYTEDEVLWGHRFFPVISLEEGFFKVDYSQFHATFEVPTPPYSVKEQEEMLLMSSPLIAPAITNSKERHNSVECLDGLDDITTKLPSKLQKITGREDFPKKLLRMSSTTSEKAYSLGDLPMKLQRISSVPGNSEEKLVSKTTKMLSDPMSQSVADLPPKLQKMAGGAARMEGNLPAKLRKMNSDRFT
T1 sequence (P48544 1-419): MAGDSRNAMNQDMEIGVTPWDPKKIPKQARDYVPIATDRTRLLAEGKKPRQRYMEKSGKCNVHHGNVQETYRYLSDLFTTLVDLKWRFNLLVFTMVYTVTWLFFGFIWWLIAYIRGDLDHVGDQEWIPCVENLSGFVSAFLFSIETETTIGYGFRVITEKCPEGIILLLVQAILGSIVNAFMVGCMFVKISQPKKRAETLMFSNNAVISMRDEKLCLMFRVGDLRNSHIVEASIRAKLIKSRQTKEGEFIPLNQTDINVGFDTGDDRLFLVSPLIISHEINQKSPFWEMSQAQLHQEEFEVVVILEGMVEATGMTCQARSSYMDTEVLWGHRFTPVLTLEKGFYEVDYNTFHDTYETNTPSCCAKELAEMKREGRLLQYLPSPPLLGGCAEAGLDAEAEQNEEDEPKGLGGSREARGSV
Briefly: Whole-cell voltage-clamp, GIRK1/4-expressing HEK-293 cells. Conditions: cell line GIRK1-4; average ± SEM. It counts as cell-based. The source says: Cell Line Construction and Cell Culture. HEK-293 cells co-expressing human GIRK1/2 and rat mGlu8 were generated as previously described (Niswender et al., 2008). A HEK-293 cell line (ATCC, Manassas, Va.) expressing human GIRK1 and human GIRK2 was constructed by transfecting HEK-293 cells with GIRK1 and GIRK2 (Origene, Rockville, Md.) cloned into the pBudCE4.1 vector (Life Technologies, Carlsbad, Calif.) using FuGene 6 (Promega, Madison, Wis.) transfection reagent. […]
A single-cell suspension of HEK-293 cells stably transfected with the appropriate ion channels were plated into TC-treated 35 mm polystyrene dishes at ˜15% confluence and incubated overnight in a 5% CO2 cell culture incubator at 37° C. […] Whole cell currents were recorded in 20K extracellular solution at −70 mV using a Pico 1 amplifier (Tecella, Foothill Ranch, Calif.) controlled by WINWCP 4.X (University of Strathclyde, Glasgow, Scotland, UK). […] One day after transfection, cells were plate into 35 mm polystyrene dishes, incubated and recorded as described above. […]
Voltage-clamp data were analyzed by converting current amplitudes to current density by dividing by each cell's membrane capacitance estimated from capacitance compensation. […]

The EC50 is the concentration giving half of the maximal effect. For `Cc1cc(NC(=O)Nc2ccc(F)c(F)c2)n(-c2ccccc2)n1` [VU0456810, 1-(3,4-difluorophenyl)-3-(3-methyl-1-phenyl-1H-pyrazol-5-yl)urea], the EC50 amounted to 1400 ± 1200 nM.
